Only a part is listed here, and it is no random draw. Some salts or complexes appear as unconnected parts, following the source record. Activity calls are given as the source filed them. No stated cut-off is given here; in the data, active means activation above about 30%; inactive means the rest.
biological target: Thyrotropin-releasing hormone receptor (Homo sapiens) (UniProt P34981); assay: qHTS for Small Molecule Agonists and Allosteric Enhancers of Human TRH Receptor: Primary Screen for Agonists.; further: 0% is about no effect; details: TRHR cells, calcium flux fluo-8, FDSS agonist mode; at 2 µM; stronger effect = higher value
Text: NIH Chemical Genomics Center [NCGC] NIH Molecular Libraries Probe Centers Network [MLPCN] MLPCN Grant: MH089816-01 Assay Submitter (PI): Marvin Gershengorn This project aims to identify small drug-like molecules that activate (agonists) the thyrotropin releasing hormone (TRH) receptor (TRHR) or enhance its TRH-stimulated activity (allosteric enhancers). TRHR, a drug-accessible cell surface receptor expressed in specific brain regions, and its ligand TRH have been implicated in several central nervous system disorders, including depression and anxiety. Small molecule TRHR agonists or allosteric enhancers that are metabolically stable and able to cross the blood-brain barrier might serve as probes to elucidate the roles of brain TRH receptors in animal models, and might be valuable as lead compounds for the development of drugs to treat patients with central nervous system disorders. Upon TRHR-Gq activation in TRHR cells, intracellular calcium is released from stores in the endoplasmic reticulum. […] This primary screen measures compound-induced activation of calcium release.
For the HTS assay freshly prepared cells are plated at a density of 2000/well in 3 ul of complete DMEM medium containing 10% serum in 1536-well plates and cultured over night at 37 C in a humidified incubator with 5% CO2. The next day, 2 ul of a no wash calcium dye (ABD Bioquest) was added to the cells and plates were incubated at room temperature for 1 hour. For the assay, assay plates were loaded into the FDSS kinetic plate reader. A 10 cycle (1 second/cycle) baseline measurement is taken and then the FDSS online 1536 pintool delivers 23 nl of compound library (as well as TRH controls) to the plate. The plate is measured for kinetically at 1 cycle/sec for 180 seconds and is considered to be the agonist portion of the assay (eg, compounds which activate a positive calcium response during this portion are flagged as potential agonists). Following the 180 second read, 1 ul of either an EC20 (positive modulation assay) is delivered by an onboard pipette head. Measurements are taken kinetically for an additional 180 seconds. TRHR FDSS Screening Protocol 1. Reagent, 3 uL 2000 cells/well 1536 TC treated Black plate in media containing 10% FCS 2. Time, 18 hours, 33.5C 5% CO2 (cells grown at 37C) 3. Reagent, 2 uL ABD fluo-8 Ca dye 4. Time, 30 min-1.5hrs hours, Room temp (6 plates/batch) 5. Detector, EX 480/EM 530C, FDSS 10 cycles baseline (1sec/cycle) 6. Compound, 23 nL of stock solution from library 7. Detector, EX 480/EM 530C, FDSS […] (1sec/cycle) Agonist mode 8. Compound, 1 ul EC20 of TRH made up in HEPES HBSS, 10 nM final 9. Detector, EX 480/EM 530C, FDSS 100 cycles (1sec/cycle) Potentiator mode

Amino acid sequences for entries named in this document (tags omitted).
UniProt P34981, whole entry: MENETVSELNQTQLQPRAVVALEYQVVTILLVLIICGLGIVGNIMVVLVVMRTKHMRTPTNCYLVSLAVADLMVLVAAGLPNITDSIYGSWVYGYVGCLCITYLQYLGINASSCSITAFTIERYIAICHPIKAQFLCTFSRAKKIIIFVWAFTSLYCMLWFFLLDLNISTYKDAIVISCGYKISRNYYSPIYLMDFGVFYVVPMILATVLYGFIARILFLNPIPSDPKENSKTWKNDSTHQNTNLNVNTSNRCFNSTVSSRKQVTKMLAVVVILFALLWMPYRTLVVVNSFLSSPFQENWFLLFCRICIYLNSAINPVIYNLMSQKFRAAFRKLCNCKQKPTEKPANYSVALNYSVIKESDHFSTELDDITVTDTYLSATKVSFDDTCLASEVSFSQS

SMILES	activation
CCOC(=O)N1CCC(Nc2cccc(C)c2)CC1	inactive: -0.211%
COc1cc(C(=O)NCC2(N(C)C)CCCCC2)ccc1OC(F)F	inactive: 0.566%
Cc1ccc(OCC(C)C)c(CN(CCCl)CCCl)c1	inactive: 0.166%
CCOc1ccc(C)cc1CN(CCCl)CCCl	inactive: -0.183%
O=C(NCC1(N2CCOCC2)CCCCC1)c1ccc(Cl)cc1	inactive: -0.997%
CCCCOc1ccc(C(=O)NCC2(N3CCOCC3)CCCCC2)cc1	inactive: -0.248%
O=C(NCC1(N2CCCCC2)CCCCC1)c1ccc(F)cc1	inactive: 0.324%
COc1ccc(NC2CCN(CCc3ccccc3)CC2)c(OC)c1	inactive: -0.0601%
CCOC(=O)N1CCC(Nc2ccc(F)cc2)CC1	inactive: -0.431%
COc1ccccc1C(=O)NCC1(N2CCOCC2)CCCCC1	inactive: -0.102%
O=C(NCC1(N2CCOCC2)CCCCC1)c1cc2ccccc2o1	inactive: -0.606%
O=C(NCC1(N2CCCCC2)CCCCC1)c1ccc(Cl)nc1	inactive: 0.26%
Cc1cc(C)cc(N(C(=O)c2ccccc2)C2CCN(C(=O)OC(C)(C)C)CC2)c1	inactive: 0.36%
CCOC(=O)N1CCC(Nc2ccc(OC)cc2)CC1	inactive: 0.213%
N#CC1(Nc2ccccc2)CCN(Cc2ccccc2)CC1	inactive: 0.705%
O=C(NCC1(N2CCCCC2)CCCCC1)c1ccc(Cl)s1	inactive: -0.587%
O=C(OC1CN2CCC1CC2)C1c2ccccc2Oc2ccccc21 (stereo not given)	inactive: 0.478%
COc1ccc(Cl)cc1C(=O)NCC1(N2CCOCC2)CCCCC1	inactive: 1.46%
O=C(NCC1(N2CCCCC2)CCCCC1)c1ccc(=O)[nH]c1	inactive: 0.0155%
O=C(NCC1(N2CCCCC2)CCCCC1)c1cccs1	inactive: -0.252%
COc1ccc(C(=O)NCC2(N3CCCCC3)CCCCC2)cc1	inactive: -1.81%
COc1ccc(C(=O)NCC2(N3CCCCC3)CCCCC2)c(OC)c1OC	inactive: -0.302%

SMILES	activation
CC(C)(C)OC(=O)N1CCC(N(C(=O)c2ccccc2)c2ccc(F)cc2)CC1	inactive: -0.296%
CSc1ccccc1C(=O)NCC1(N2CCCCC2)CCCCC1	inactive: 0.757%
O=C(NCC1(N2CCCCC2)CCCCC1)c1cncc(Br)c1	inactive: -0.327%
COc1ccc2c(c1O)-c1c(O)c(OC)cc3c1[C@H](C2)[N+](C)(C)CC3.O=[N+]([O-])c1cc([N+](=O)[O-])c([O-])c([N+](=O)[O-])c1[O-]	inactive: -0.0994%
O=C(OC1CN2CCC1CC2)c1ccc([N+](=O)[O-])cc1 (stereo not given)	inactive: 2.18%
CCCCOc1ccccc1C(=O)NCC1(N2CCOCC2)CCCCC1	inactive: -1.84%
O=C(NCC1(N2CCOCC2)CCCCC1)c1ccccc1Br	inactive: 0.586%
CCCOc1ccc(C(=O)NCC2(N(C)C)CCCCC2)cc1OC	inactive: 1.75%
COc1ccc(CN(CCCl)CCCl)cc1Cl	inactive: -0.531%
O=[N+]([O-])c1cc([N+](=O)[O-])c(OC2CCCCC2O)c([N+](=O)[O-])c1 (stereo not given)	inactive: 1.34%
CN(C)c1cccc(C(=O)NCC2(N3CCCCC3)CCCCC2)c1	inactive: -0.949%
CC(C)c1ccc(NC2CCN(C(=O)OC(C)(C)C)CC2)cc1	inactive: 0.872%
COc1cc(OC)c(C(=O)NCC2(N(C)C)CCCCC2)cc1OC	inactive: -0.186%
CCCOc1cccc(C(=O)NCC2(N3CCOCC3)CCCCC2)c1	inactive: -1.1%
O=C(NCC1(N2CCCCC2)CCCCC1)c1cccc(C(F)(F)F)c1	inactive: 1.92%
O=[N+]([O-])c1cc([N+](=O)[O-])c(NCC2CCS(=O)(=O)C2)c([N+](=O)[O-])c1 (stereo not given)	inactive: 1.68%
CN1CCN(CCOC(=O)C(O)(c2ccccc2)c2ccccc2)CC1	inactive: -0.214%
COc1ccc(NC2CCN(C(=O)OC(C)(C)C)CC2)cc1	inactive: 0.0674%
CC(C)c1ccc(C(=O)NCC2(N3CCOCC3)CCCCC2)cc1	inactive: -1.31%
COc1cc(C(=O)NCC2(N3CCCCC3)CCCCC2)ccc1OC(F)F	inactive: 0.76%
O=C(NCC1(N2CCOCC2)CCCCC1)c1cc(=O)[nH]c2ccccc12	inactive: 0.114%
O=C(NCC1(N2CCCCC2)CCCCC1)c1ccc(OC(F)F)cc1	inactive: 1.04%

SMILES	activation
CSc1ccc(C(=O)NCC2(N3CCOCC3)CCCCC2)cc1	inactive: -0.0497%
O=C(NCC1(N2CCCCC2)CCCCC1)c1cccc([N+](=O)[O-])c1	inactive: 0.456%
CCOc1ccc(C(=O)NCC2(N3CCOCC3)CCCCC2)cc1	inactive: 0.0174%
CCN1CCC(Nc2ccc(Cl)cc2)CC1	inactive: 0.651%
N#CC1(Nc2ccccc2)CCN(CCc2ccccc2)CC1	inactive: 0.801%
c1ccc(CN2CCC(Nc3ccccc3)CC2)cc1	inactive: -0.0643%
CCCN1CCC(Nc2cc(OC)cc(OC)c2)CC1	inactive: 1.52%
O=C(NCC1(N2CCOCC2)CCCCC1)c1ccccc1	inactive: 0.301%
CN(C)C1(CNC(=O)c2cccc(C#N)c2)CCCCC1	inactive: -0.869%
O=C(NCC1(N2CCOCC2)CCCCC1)c1ccc([N+](=O)[O-])cc1	inactive: -0.291%
CC(C)(C)OC(=O)N1CCC(N(C(=O)c2ccccc2)c2ccc(Cl)cc2)CC1	inactive: 0.0774%
N#Cc1ccc(C(=O)NCC2(N3CCCCC3)CCCCC2)cc1	inactive: 0.744%
O=C(NCC1(N2CCOCC2)CCCCC1)c1ccccc1[N+](=O)[O-]	inactive: 0.581%
CCOC(=O)C(CC)C1=NC(C)(C)Cc2ccccc21.O=[N+]([O-])c1cc([N+](=O)[O-])c(O)c([N+](=O)[O-])c1 (stereo not given)	inactive: -0.735%
N/C(=N\O)c1c(N)no[n+]1[O-]	inactive: 0.09%
CCOC(=O)N1CCC(Nc2ccc(C)cc2)CC1	inactive: -0.009%
CCc1cc(C(=O)NCC2(N3CCCCC3)CCCCC2)sc1C	inactive: 23.3%
O=C(OC1CN2CCC1CC2)C1c2ccccc2C=Cc2ccccc21 (stereo not given)	inactive: 1.09%
O=C(O)c1cccc(Nc2c([N+](=O)[O-])cc([N+](=O)[O-])cc2[N+](=O)[O-])c1	inactive: -0.835%
O=C(NCC1(N2CCOCC2)CCCCC1)c1cc(Br)ccc1Cl	inactive: -0.906%
COc1ccc(C(=O)NCC2(N3CCOCC3)CCCCC2)cc1OC	inactive: -0.0088%
CCC(CO)(C(=O)OC1CN2CCC1CC2)c1ccccc1 (stereo not given)	inactive: 0.417%

SMILES	activation
COc1cc(C(=O)NCC2(N3CCOCC3)CCCCC2)cc(OC)c1OC	inactive: -0.0121%
COc1cc(OC)cc(C(=O)NCC2(N3CCOCC3)CCCCC2)c1	inactive: 0.018%
COc1cccc(C(=O)N(c2cc(C)cc(C)c2)C2CCN(C(=O)OC(C)(C)C)CC2)c1	inactive: -0.475%
CCCOc1ccc(C)cc1CN(CCCl)CCCl	inactive: -1.38%
CN1CCC(Nc2ccc(Cl)cc2)CC1	inactive: 0.499%
CCOc1ncccc1C(=O)NCC1(N2CCOCC2)CCCCC1	inactive: -1.03%
CN1CCC(Nc2ccc(F)c(Cl)c2)CC1	inactive: 3.12%
CCCOc1ccc(C(=O)NCC2(N(C)C)CCCCC2)cc1	inactive: 0.836%
CC(C)(C)OC(=O)N1CCC(Nc2ccccc2)CC1	inactive: 0.125%
O=C(O)C1(Nc2ccccc2)CCN(Cc2ccccc2)CC1	inactive: -0.141%
CCN1CCC(Nc2cccc(F)c2)CC1	inactive: 0.544%
O=C(NCC1(N2CCCCC2)CCCCC1)c1ccco1	inactive: 0.811%
CC(C)(C)c1ccc(C(=O)NCC2(N3CCOCC3)CCCCC2)cc1	inactive: -0.197%
CN(C)c1ccc(C(=O)NCC2(N3CCCCC3)CCCCC2)cc1	inactive: 0.0413%
Cc1ccccc1C(=O)NCC1(N(C)C)CCCCC1	inactive: 0.876%
COc1cc(OC)cc(C(=O)NCC2(N3CCCCC3)CCCCC2)c1	inactive: -0.833%
CN(C)C1(CNC(=O)c2ccc(C(C)(C)C)cc2)CCCCC1	inactive: 1.15%
Cc1ccc(C(=O)NCC2(N3CCCCC3)CCCCC2)o1	inactive: 0.0655%
Fc1ccccc1NC1CCN(Cc2ccccc2)CC1	inactive: -0.372%

Reference: PubChem BioAssay AID493084 (National Center for Advancing Translational Sciences (NCATS), 2011)
